Among the data in patent publication US20050095279A1, “Transdermal analgesic systems having reduced abuse potential” (published 2005) are serum naltrexone concentration values, retold here.

SMILES strings stand for the structures.

One series relates to healthy subjects. Briefly: Contact sensitization potential of transdermal systems in healthy subjects (Example 28). Particulars: System A (placebo with naltrexone, 44 cm^2); days 17, 19, 22; majority of the serum samples; lower limit of quantitation approximately 5 pg/mL.
Series [1] in a line: Activity studies: normal activity, showering, physical exercise (Example 29). Particulars: placebo system with naltrexone (44 cm^2), three 4-hour periods; majority of the serum samples; lower limit of quantitation approximately 5 pg/mL.

As for `O=C1CC[C@@]2(O)[C@H]3Cc4ccc(O)c5c4[C@@]2(CCN3CC2CC2)[C@H]1O5`, the serum naltrexone concentration entry (in the series on healthy subjects; in series [1]) was “below quantifiable limits” in each case.
